According to patent US20020049162A1, “Methods for inhibiting smooth muscle cell proliferation” (priority 2000, published 2002):

Tested on: Human coronary artery smooth muscle cells
Experiment: Inhibition of human smooth muscle cell proliferation (cell counts, growth rate vs wells without peptide)
Format: cell-based

AIII: AII(2-8), SEQ ID NO:2 (RVYIHPF) [reference compound]
Effect on proliferation of human smooth muscle cells (in words) (compared with wells that did not contain peptide): increased the proliferation
% Control Proliferation Day 1 vs Day 4 (percentage of the control growth rate, Day 1 vs Day 4, values below 100 = inhibition, peptides 0.1-10 μg/ml, concentration not given): 121.6%
% Control Proliferation Day 1 vs Day 7 (percentage of the control growth rate, Day 1 vs Day 7, values below 100 = inhibition, peptides 0.1-10 μg/ml, concentration not given): 136.4%
